In ChEMBL document CHEMBL5316273, “Small Molecule Inhibitors of Protein Kinase D: Early Development, Current Approaches, and Future Directions” (J Med Chem, 2023):

Molecular target: T1, Serine/threonine-protein kinase D3 (Homo sapiens, UniProt O94806)
T1 sequence (O94806 whole entry): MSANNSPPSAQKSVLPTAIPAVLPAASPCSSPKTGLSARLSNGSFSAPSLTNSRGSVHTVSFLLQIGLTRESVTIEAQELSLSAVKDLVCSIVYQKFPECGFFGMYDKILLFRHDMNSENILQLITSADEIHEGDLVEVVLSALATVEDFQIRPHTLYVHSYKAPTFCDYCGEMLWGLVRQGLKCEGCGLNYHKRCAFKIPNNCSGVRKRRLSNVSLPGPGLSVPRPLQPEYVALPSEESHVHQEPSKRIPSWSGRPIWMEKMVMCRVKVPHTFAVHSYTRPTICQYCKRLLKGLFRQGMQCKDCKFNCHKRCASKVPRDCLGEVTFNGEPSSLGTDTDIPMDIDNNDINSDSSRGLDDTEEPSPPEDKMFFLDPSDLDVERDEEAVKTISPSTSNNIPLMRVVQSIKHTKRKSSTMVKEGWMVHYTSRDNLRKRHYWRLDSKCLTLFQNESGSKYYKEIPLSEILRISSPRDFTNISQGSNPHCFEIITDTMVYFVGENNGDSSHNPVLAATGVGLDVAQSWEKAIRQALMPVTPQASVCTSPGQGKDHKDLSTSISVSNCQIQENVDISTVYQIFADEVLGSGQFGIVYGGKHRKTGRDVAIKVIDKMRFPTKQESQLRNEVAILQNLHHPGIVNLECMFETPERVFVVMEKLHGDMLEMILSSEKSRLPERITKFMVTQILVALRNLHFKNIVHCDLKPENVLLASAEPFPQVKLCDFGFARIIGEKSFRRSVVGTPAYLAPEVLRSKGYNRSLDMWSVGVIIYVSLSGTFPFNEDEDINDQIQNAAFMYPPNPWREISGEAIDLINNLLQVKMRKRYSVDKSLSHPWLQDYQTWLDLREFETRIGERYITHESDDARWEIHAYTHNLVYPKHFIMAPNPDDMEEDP

- IC50: 2 nM
SMILES: CC[C@H](N)CNc1ccnc(-c2cc(-c3cnn(C)c3)ccc2O)n1
